Experimental data published in ChEMBL document CHEMBL1146704, “(2-amino-phenyl)-amides of omega-substituted alkanoic acids as new histone deacetylase inhibitors” (Bioorg Med Chem Lett, 2004).

By UniProt entry, the sequences of proteins in these tests, tags left out.
UniProt Q13547, whole entry: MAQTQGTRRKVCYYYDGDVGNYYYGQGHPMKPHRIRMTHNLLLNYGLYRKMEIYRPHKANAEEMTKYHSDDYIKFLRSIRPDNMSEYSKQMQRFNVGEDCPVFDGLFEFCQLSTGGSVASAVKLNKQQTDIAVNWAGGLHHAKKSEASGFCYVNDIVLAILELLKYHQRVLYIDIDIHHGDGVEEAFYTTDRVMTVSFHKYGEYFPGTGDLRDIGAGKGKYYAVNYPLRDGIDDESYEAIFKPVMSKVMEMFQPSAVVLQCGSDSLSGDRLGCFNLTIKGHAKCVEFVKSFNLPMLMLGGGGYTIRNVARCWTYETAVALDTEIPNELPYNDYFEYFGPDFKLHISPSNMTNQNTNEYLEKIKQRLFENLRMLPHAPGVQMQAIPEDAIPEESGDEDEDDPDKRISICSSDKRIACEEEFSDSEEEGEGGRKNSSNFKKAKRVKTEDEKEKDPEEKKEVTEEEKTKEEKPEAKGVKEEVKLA

Target: Histone deacetylase 1 (Homo sapiens, UniProt Q13547)

IC50	SMILES
12 µM	Nc1ccccc1NC(=O)CCCCCn1cnc2ccccc2c1=O
1 µM	Nc1ccccc1NC(=O)CCCCCN1C(=O)c2cccc3cc(O)cc(c23)C1=O
